In the assay the target is SIRT3 (human). The assay can be described thus: fluorescence polarisation.

By Kd is commonly meant the concentration at which binding is half-saturated. Consider “Histone H3 peptide with thiotrifluoroacetyl-lysine at Lys-14”, for which the Kd amounted to 5.9 µM.

These data come from article PMC3042044.
